Experimental findings from patent US11229629B2, “Inhibitors of mitochondrial fission” (Queen's University at Kingston, priority 2019, dated 2022) are described below.

One test concerns A549. As to the kind of experiment: Apoptosis assay (Annexin V/PI) in A549 cells. It counts as cell-based, human. The settings on record: mdivi-1 25 μM, Drpitor1 1.0 μM, Drpitor1a 0.5 μM, FIG. 6B. As to the method:
Apoptosis assay: Cell apoptosis was determined by the Annexin V+ propidium iodide (PI) method using Alexa Fluor 488 Annexin V/Dead Cell Apoptosis Kit (available from ThermoFisher Scientific). A549 cells were collected 48 hours after compound treatment. Percentage of Annexin V (+) and PI (+) cells was determined using SONY S[…] flow cytometer and compared between control group and treatment groups.

For test [1], the system named is right ventricle ischemia-reperfusion injury. The following applies: 0.5 μM in perfusate; ex vivo rat heart.

Regarding `COc1cc(-n2c(=S)[nH]c3ccccc3c2=O)c(Cl)cc1Cl` [mdivi-1, mitochondrial division inhibitor 1, reference compound], the “Baseline apoptosis rate (percentage of cells with positive Annexin V staining)” value with A549 is on record as “significantly higher”. For `O=C1c2ccncc2C(=O)c2c1[nH]c1ccccc21` [Drpitor1a], the “Baseline apoptosis rate (percentage of cells with positive Annexin V staining)” value in the test on A549 was “significantly higher”. In addition, the “Right ventricular end-diastolic pressure (RVEDP) after two periods of IR” value in test [1] was “did not manifest the increase in right ventricular end-diastolic pressure”.
